{"source": "ChEMBL document CHEMBL5223177", "about": "“Pyrazole Ureas as Low Dose, CNS Penetrant Glucosylceramide Synthase Inhibitors for the Treatment of Parkinson's Disease” (ACS Med Chem Lett, 2023)", "key": {"[1]": {"biological_target": "T1, Ceramide glucosyltransferase (Homo sapiens, UniProt Q16739)", "T1 sequence (Q16739 whole entry)": "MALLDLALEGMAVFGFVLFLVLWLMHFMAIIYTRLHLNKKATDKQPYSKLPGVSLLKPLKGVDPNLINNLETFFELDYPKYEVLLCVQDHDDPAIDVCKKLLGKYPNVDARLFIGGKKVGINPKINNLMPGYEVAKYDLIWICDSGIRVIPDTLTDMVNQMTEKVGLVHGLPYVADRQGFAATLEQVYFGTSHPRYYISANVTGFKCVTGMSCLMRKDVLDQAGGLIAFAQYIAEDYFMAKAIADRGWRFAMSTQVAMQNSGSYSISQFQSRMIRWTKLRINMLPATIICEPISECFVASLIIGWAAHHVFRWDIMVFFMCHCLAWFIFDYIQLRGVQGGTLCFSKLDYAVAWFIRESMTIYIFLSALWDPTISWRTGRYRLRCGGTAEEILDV", "experiment": "Inhibition of Glucosylceramide synthase (unknown origin) using C6-ceramide and UDP-glucose as substrate preincubated for 30 mins followed by substrate addition and measured after 2 hrs by UDP-Glo luminometer analysis"}, "[2]": {"biological_target": "T1, Ceramide glucosyltransferase", "experiment": "Inhibition of GCS in human fibroblast", "type": "cell-based"}}}
{"smiles": "CC(C)(NC(=O)O[C@@H]1CN2CCC1CC2)c1csc(-c2ccc(F)cc2)n1", "values": [{"measurement": "IC50", "setting": "[1]", "value": 44, "unit": "nM"}, {"measurement": "IC50", "setting": "[2]", "value": 12, "unit": "nM"}]}
